Screening data as filed in PubChem BioAssay.
HCMV UL50-53 inh: inhibitors of HCMV UL50-UL53 interaction, biochemical, HTRF; HCMV UL50-UL53 nuclear egress complex (human cytomegalovirus); normalized percent inhibition; inhibition, % (test concentration not listed); actives 0.15% (n = 190,000); in the data active = inhibition above about 27%, passing the limit was not always enough
GIV-Gai inh: inhibitors of GIV GBA-motif binding to rat Galpha-i3; P08753; Galpha-i3/FITC-GIV peptide fluorescence polarization, 90 min; stronger effect = lower value; scaled: aluminum fluoride 0%, vehicle 100%; percent of control (FP), % (no concentration beside the values); actives 0.42% (n = 210,000); AID 1224905;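 active means replicate mean at 85% of control or lower, very high polarization wells dropped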;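 further: wells of about 15 µL received 100 nL stock; the first replicate is given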
GIV-Gai FP conf: inhibitors of GIV peptide binding to Galpha-i3, confirmation, biochemical, fluorescence polarization, FITC-GIV peptide, rat Galphai3 | shares compounds with GIV-Gai inh | active compounds read low | fluorescence polarization, mP at 100 µM | actives 38% (n = 580) | AID 1259350, 2017;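 active = inhibition score of 15 or more, meaning 100 minus mean polarization as percent of control over three replicates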;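 also: lower mP means peptide displaced from Galphai3 so more inhibition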
GIV-Gai AS conf: inhibitors of GIV binding to Galpha-i3, confirmation, orthogonal assay for GIV-Galpha-i inhibitor project, biochemical, AlphaScreen, His-GIV, GST-Galphai3; AlphaScreen counts at 100 µM; actives 39% (n = 580); shares compounds with GIV-Gai inh; AID 1259351, 2017; purified proteins, 90 min; active compounds read low;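 active = inhibition score at or above a set limit, where the score is 100 minus the three-replicate mean percent of control signal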
Numbers without * were called inactive; · = not tested or not shown. This is a sample that favours compounds with a hit; in the whole collection about 0.46% have one here.

SMILES | HCMV UL50-53 inh | GIV-Gai inh | GIV-Gai FP conf | GIV-Gai AS conf
CCOC(=O)N1CC=C2C(C#N)=C(N)C(C#N)(C#N)C(c3cccs3)C2C1 (stereo not given) | · | 107 | · | ·
CCN1C=CC2=C(C#N)C(N)C(C#N)(C#N)C(c3cccs3)C2C1 (stereo not given) | -51 | 65* | 64 | 28433
Cc1ccc(C)n1Cc1ccc(C(=O)O)cc1 | 70* | 33* | 48* | 3139*
Cc1ccc(C)n1CCC(=O)O | -1 | 71* | 60 | 3780*
Cc1cc(C)n(Cc2ccc(C(=O)O)cc2)n1 | -14 | · | · | ·
Cc1ccn(CCC(=O)O)n1 | -24 | 103 | · | ·
CNCc1ccc(C)cc1C | -13 | · | · | ·
O=C(NCCc1csc2nc(-c3cccc(F)c3)nn12)c1ccc2c(c1)OCO2 | -10 | 102 | · | ·
O=C1c2ccccc2S(=O)(=O)c2cc(-c3nn[nH]n3)ccc21 | -209 | 97 | · | ·
O=C1C(Cc2ccc(-c3nn[nH]n3)cc2)=C(c2ccccc2)S(=O)(=O)c2ccccc21 | -21 | 86 | 62 | 36755*
CC(C)(C)C(=O)CSc1ncnc2sccc12 | -2 | · | · | ·
CCCCCCn1c(=O)[nH]c2nc3cc(N)c(C)cc3nc2c1=O | -39 | 111 | · | ·

Some values from the results shown:
`Cc1cc(C)n(Cc2ccc(C(=O)O)cc2)n1` | HCMV UL50-53 inh: -14
`Cc1ccc(C)n1Cc1ccc(C(=O)O)cc1` | GIV-Gai FP conf: 48*
`O=C1c2ccccc2S(=O)(=O)c2cc(-c3nn[nH]n3)ccc21` | GIV-Gai inh: 97

Back to the main list; the three compounds before the break are reprinted first.
SMILES | HCMV UL50-53 inh | GIV-Gai inh | GIV-Gai FP conf | GIV-Gai AS conf
O=C1C(Cc2ccc(-c3nn[nH]n3)cc2)=C(c2ccccc2)S(=O)(=O)c2ccccc21 | -21 | 86 | 62 | 36755*
CC(C)(C)C(=O)CSc1ncnc2sccc12 | -2 | · | · | ·
CCCCCCn1c(=O)[nH]c2nc3cc(N)c(C)cc3nc2c1=O | -39 | 111 | · | ·
CC(=O)Nc1cc2nc3[nH]c(=O)n(C)c(=O)c3nc2cc1C | -42 | 69* | 52 | 35695
Cc1cc2nc3c(=O)n(C)c(=O)[nH]c3nc2cc1N=CN(C)C | -26 | 88 | 12* | 26021*
CC(=O)Nc1cc2nc3[nH]c(=S)[nH]c(=O)c3nc2cc1C | -132 | 109 | · | ·
CCOC(=O)CSc1n[nH]c(-c2ccco2)n1 | · | 104 | · | ·
O=C(O)c1ccc(CSc2n[nH]c(-c3ccco3)n2)cc1 | 5 | 78* | 58* | 2493*
Cc1ccccc1NC(=O)COC(=O)c1cccc(S(=O)(=O)N2CCCC2)c1 | -25 | · | · | ·
COc1ccc(/C=C2\N=C(c3ccc(Cl)cc3)N(c3ccc(C)cc3C)C2=O)cc1OC | · | 109 | · | ·
COc1ccc(/C=C2\N=C(c3ccc(Cl)cc3)N(c3cccc(F)c3)C2=O)cc1OC | · | 88 | 79 | 49008
COc1ccc(/C=C2\N=C(c3ccc(Cl)cc3)N(c3ccccc3)C2=O)cc1OC | · | 81* | 81 | 50234
COc1ccc(/C=C2\N=C(c3ccc(Cl)cc3)N(c3cccc(C)c3)C2=O)cc1OC | · | 117 | · | ·
Cc1ccc(Sc2nc3ccccc3n3nnnc23)cc1 | · | 98 | · | ·
COc1ccc(NC(=O)c2sc3nc4c(cc3c2N)CCCCCC4)cc1OC | -47 | 80* | 81 | 34749
Nc1c(C(=O)Nc2cccc(Cl)c2)sc2nc3c(cc12)CN(Cc1ccccc1)CC3 | -44 | 79* | 81 | 31968
COc1ccccc1NC(=O)c1sc2nc3c(cc2c1N)CCCCCC3 | -22 | 104 | · | ·
Cc1cccc(NC(=O)c2sc3nc4c(cc3c2N)CN(Cc2ccccc2)CC4)c1 | -22 | 100 | · | ·
O=c1c2n[nH]c(=S)n2ccn1-c1ccc(F)c(F)c1 | -23 | 103 | · | ·
O=C(NCCCn1c(-c2ccncc2)nc2cccnc21)NC1CCCC1 | -13 | 103 | · | ·
CN(C)/N=C/C=C1\CCC(C(=O)Nc2ccccc2)=C1N1CCOCC1 | -52 | · | · | ·
Cc1ccc(NC(C)C(=O)N/N=C/c2cccnc2)cc1 (stereo not given) | -48 | 98 | · | ·
Cc1cc(C2CCCN2Cc2cn[nH]c2-c2cccs2)no1 (stereo not given) | · | 107 | · | ·
CCn1nc(N)c2c(O)[nH]c(=O)cc21 | · | 41* | 34* | 25115*
CCN(CC)C(=O)CSc1nc(N)cc(=O)[nH]1 | -11 | · | · | ·
O=C1/C(=C/c2ccncc2)CC/C1=C\c1ccncc1 | -34 | · | · | ·
CC1C/C(=C/c2ccncc2)C(=O)/C(=C/c2ccncc2)C1 (stereo not given) | · | 68* | 44* | 8734*
COc1ccc(C2(O)CCN(CC(=O)NC(C)(C)C)CC2)c(OC)c1 | -12 | 104 | · | ·
CC(=O)Nc1cc(OC(C)=O)c2nonc2c1OC(C)=O | 101* | -28* | 16* | 3290*
CC(=O)Nc1nonc1NC(C)=O | -9 | 107 | · | ·
CCCN(C)S(=O)(=O)c1cc(-c2nnc(C)o2)co1 | · | 107 | · | ·
O=C(O)c1cc(NS(=O)(=O)c2cc(F)ccc2F)cnc1N1CCOCC1 | -10 | 57* | 33* | 29995
O=C(O)c1cc(NS(=O)(=O)c2cc(F)ccc2F)ccc1N1CCN(c2ccc(F)cc2)CC1 | -31 | 105 | · | ·
CCOC(=O)c1c(NC(=O)c2nc(S(=O)(=O)CC)ncc2Cl)sc2c1CCCC2 | -2 | 97 | · | ·
CCCS(=O)(=O)c1ncc(Cl)c(C(=O)Nc2sc3c(c2C(=O)OCC)CCCC3)n1 | 7 | 76* | 62 | 44265
Cc1cccc(CN2CCC(CNC(=O)COc3cc(=O)n(C)c4ccccc34)CC2)c1 | -6 | 107 | · | ·
O=C1c2cc(S(=O)(=O)N3CCCCC3)cc([N+](=O)[O-])c2-c2c1cc(S(=O)(=O)N1CCCCC1)cc2[N+](=O)[O-] | · | 109 | · | ·
O=[N+]([O-])c1cc(S(=O)(=O)O)cc2c1-c1c(cc(S(=O)(=O)O)cc1[N+](=O)[O-])C2 | · | 86 | 62 | 17742*
O=C(O)C(Cc1ccccc1)P(=O)(O)CN1CCOCC1 (stereo not given) | -14 | 107 | · | ·

In the list so far, these contain a cyano group.
SMILES | HCMV UL50-53 inh | GIV-Gai inh | GIV-Gai FP conf | GIV-Gai AS conf
CCOC(=O)N1CC=C2C(C#N)=C(N)C(C#N)(C#N)C(c3cccs3)C2C1 (stereo not given) | · | 107 | · | ·
CCN1C=CC2=C(C#N)C(N)C(C#N)(C#N)C(c3cccs3)C2C1 (stereo not given) | -51 | 65* | 64 | 28433

(more compounds)
SMILES | HCMV UL50-53 inh | GIV-Gai inh | GIV-Gai FP conf | GIV-Gai AS conf
CCN(CC)C(=O)Cn1c(=O)c2ccccc2n2c(=S)sc(-c3ccc(Br)cc3)c12 | -29 | 100 | 94 | 27284
O=C(Cn1c(=O)c2ccccc2n2c(=S)sc(-c3ccccc3)c12)NCC1CCCO1 (stereo not given) | -16 | 78* | 72 | 23082
CCN(CC)C(=O)Cn1c(=O)c2ccccc2n2c(=S)sc(-c3ccccc3F)c12 | -41 | 121 | · | ·
O=C(Cn1c(=O)c2ccccc2n2c(=S)sc(-c3ccc(Br)cc3)c12)N1CCCC1 | -19 | 94 | · | ·
CCOc1ccccc1NC(=O)CS | -2 | 106 | · | ·
Cc1ccc2c(c1)OC=CC(C(=O)NCc1ccccc1Cl)=C2 | -22 | 103 | · | ·
CC1=C(C(=O)OC2CCCCC2)C(c2coc3ccc(Cl)cc3c2=O)C2=C(CCCC2=O)N1 (stereo not given) | -20 | 105 | · | ·
CC1=C(C(=O)OC2CCCCC2)C(c2coc3ccc(Cl)cc3c2=O)C2=C(CC(C)(C)CC2=O)N1 (stereo not given) | -10 | 92 | 63 | 54497
O=C(O)c1ccc(S(=O)(=O)N(Cc2ccco2)CC2CCCO2)cc1 (stereo not given) | · | 97 | · | ·
Cc1cc(=O)c2cccc(C(=O)Nc3ccccc3C)c2[nH]1 | -5 | 102 | · | ·
Cc1nn(-c2ccc(N3CCOCC3)nn2)c(C)c1CCC(=O)N1CCN(c2ccccn2)CC1 | -34 | 101 | · | ·
CC(NCc1ccc(F)cc1)C(=O)NC1CCCCC1 (stereo not given) | -18 | 101 | · | ·
CC(NCc1ccc(F)cc1)C12CC3CC(CC(C3)C1)C2 (stereo not given) | · | 88 | 62 | 43107
O=C(c1ccco1)N1CCC(C(=O)N2CCc3ccccc32)CC1 | -17 | 103 | · | ·
